These results are taken from patent US7605231B2, “Gelatin derivatives and high-molecular micelle comprising the derivatives” (NOF Corporation, priority 2002, dated 2009).

The nature of the series: Critical micelle formation concentration (CMC) by PNA incorporation. It is filed as physicochemical. The conditions noted are these: isotonic phosphate buffer pH 7.4, PNA incorporation. The procedure: With regard to the PEG-grafted gelatin prepared, the critical micelle formation concentration (CMC) was measured. The CMC was measured by incorporating N-phenyl-1-naphtylamine (PNA) into the micelle. Using an isotonic phosphate buffer with a pH of 7.4, various concentrations—having PEG-grafted gelatin aqueous solutions were prepared. 0.1 ml of the PNA solution dissolved in methanol having a concentration of 5.0×10^−3M was added to 2 ml of the PEG-grafted gelatin solution and stirred for 2 minutes. Thereafter, the absorbance at a wavelength of 500 nm was measured using a spectrophotometer.
With regard to the PEG-grafted succinated gelatin prepared, the critical micelle forming concentration (CMC) was measured. The CMC was measured by incorporating N-phenyl-1-naphtyl amine (PNA) into the micelle. Using an isotonic phosphate buffer with a pH of 7.4, PEG-grafted succinated gelatin aqueous solutions with various concentrations were prepared. […] Thereafter, the absorbance at a wavelength of 500 nm was measured using a spectrophotometer.
Micelle solutions were prepared in accordance with the method of Example 3 from the PEG-grafted gelatin derivatives prepared in Example 22 and the CMC of each derivative was measured in accordance with Example 5.

As for “methoxy polyethylene glycol succinimidyl succinate [SUNBRIGHT MEC-50HS]”, the “CMC (whether admitted)” value is recorded as “CMC was not admitted”.
